scFv variants of Ab-14 (light chain) against a SARS-CoV-2 spike peptide

Values reported by Engelhart et al. 2022, doi:10.1038/s41597-022-01779-4 (FLAb copy).

The target is the same throughout: PDVDLGDISGINAS, from the HR2 region of SARS-CoV-2 spike.

The variants keep the heavy chain, the linker and the frameworks of Ab-14 (scFv order VH, the linker GGGGSGGGGSGGGGS, VL).
VH: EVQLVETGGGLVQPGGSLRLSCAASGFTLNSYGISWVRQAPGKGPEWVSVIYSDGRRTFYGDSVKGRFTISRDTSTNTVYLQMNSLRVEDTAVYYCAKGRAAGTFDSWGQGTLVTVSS
VL: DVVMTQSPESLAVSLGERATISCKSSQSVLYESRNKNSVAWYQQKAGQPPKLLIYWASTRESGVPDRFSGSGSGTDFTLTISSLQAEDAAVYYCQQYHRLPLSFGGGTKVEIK

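The parent was found by panning a naive human phage display library on the peptide. Library AAYL50 holds single substitutions and randomly drawn double and triple substitutions in the CDRs. AlphaSeq pools MATa yeast showing the antibodies with MATalpha yeast showing the peptide. The frequency of each diploid, read from paired DNA barcodes, reflects how well the two displayed proteins bind. Scores were corrected for input abundance and mapped to Kd with protein pairs of known affinity run in the same pool. There are three technical replicates.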

Each variant is given by its three light chain CDRs, as the data file delimits them; those of the parent are KSSQSVLYESRNKNSVA, WASTRES, QQYHRLPLS.
All variants listed here change K36 of the VL, counted from its first residue.
Each Kd is an estimate from the mating assay, the geometric mean of the replicates in which the pair was seen; lower is stronger.
A pair that was not seen in any replicate is written "not detected"; this usually means weak binding, but a binder can also be missed.

CDR-L1,CDR-L2,CDR-L3,apparent Kd,replicates with signal
KSSQSVLYESRNDISVA,WAVTRES,QQYHRLPLS,380 nM,3 of 3
KSSQSVLVESRNNNSVA,WASTRES,QQYHRAPLS,13 nM,3 of 3
KSSQSHLYESRNENTVA,WASTRES,QQYHRLPLS,870 nM,3 of 3
KSSQSVLYESRNINSVA,WASTRES,QQYERLPLK,28 nM,3 of 3
KSSQSVLYESRNINSSA,WASTRES,QQYHRLPLT,not detected,0 of 3
KSSQSVLYESRNDNSVA,WASTRDS,QQYHRLPLS,10 nM,3 of 3
KSSQSVLYESINENSVA,WASTRES,QQYHRLYLS,230 µM,1 of 3
KSSQFVLYESRNRNSEA,WASTRES,QQYHRLPLS,not detected,0 of 3
KSSQSVLYESRNANSVA,WASTRED,QQYHRLGLS,3.9 nM,3 of 3
KSSQSVLAESRNAASVA,WASTRES,QQYHRLPLS,3.7 nM,3 of 3
KSSQSVLYESRNFNSVA,MASTRES,QQYHRLPLH,1.9 nM,3 of 3
KSSQSVLYESRNCYSVA,WASTRES,RQYHRLPLS,15 nM,3 of 3
KMSQSVLYESRNSNSVA,WASTRES,QQYHRLPLS,2.0 nM,3 of 3
KSSNSVLYESRNTNSVA,WASRRES,QQYHRLPLS,29 nM,3 of 3
KASQSVLYESRNHNSVA,WASTRES,TQYHRLPLS,not detected,0 of 3
KSSQSVLRESCNYNSVA,WASTRES,QQYHRLPLS,290 nM,3 of 3
KSSQGVYYESRNDNSVA,WASTRES,QQYHRLPLS,not detected,0 of 3
KSSQWVLYESRNVNCVA,WASTRES,QQYHRLPLS,130 µM,1 of 3
KSSQSELYESRNANSVP,WASTRES,QQYHRLPLS,not detected,0 of 3
KSSQSVLYESRNTNSPN,WASTRES,QQYHRLPLS,not detected,0 of 3
KSSQSVLYESRNENSVA,MASTREH,QQYHRLPLS,5.6 nM,3 of 3
KSSQSVLMESRNCNSVA,KASTRES,QQYHRLPLS,2.2 nM,3 of 3
KSSQSVLYESHNNNSVW,WASTRES,QQYHRLPLS,54 µM,2 of 3
KSSQSVLYESRNDNSVA,WASTRES,GQYHRLPLS,1.7 µM,3 of 3
KSSQSVLYESRNPNSVA,WASTRES,SQYHRHPLS,22 nM,3 of 3
KSSQSVLYESRNANSEA,WASTREN,QQYHRLPLS,not detected,0 of 3
KSSQKVLYESRNCNSVA,WASTRES,QQYHRLNLS,370 µM,1 of 3
KSSQSVLYEGRNWNSVA,FASTRES,QQYHRLPLS,4.7 nM,3 of 3
KSSQSVLYESRLDNSVR,WASTRES,QQYHRLPLS,not detected,0 of 3
KSSYSVLYESRNLNSVA,WASTRES,QQLHRLPLS,52 nM,3 of 3
KSSQSVLYESRMNNSDA,WASTRES,QQYHRLPLS,89 µM,3 of 3
KSSQSVLYESRNRNSVA,WASTRES,QQYHRLPLS,7.2 nM,3 of 3
KSSQGVLYESRNCTSVA,WASTRES,QQYHRLPLS,not detected,0 of 3
KSSQSVLYESRNFNSVA,WASTRES,WQYLRLPLS,31 nM,3 of 3
KSSQSVLYESRNENSVQ,WASTRES,QQYHRFPLS,18 µM,2 of 3
KSSQSVLYESYNMNSVA,WASTRES,QQYLRLPLS,37 nM,3 of 3
KSSQSVLYESRNGNSVM,WASTRES,QNYHRLPLS,170 µM,1 of 3
KSSQGVLYESRNHNSVA,WASTRES,QNYHRLPLS,61 µM,1 of 3
KSSQSVLYESRNMNSVA,WASTRES,QQYHRLFGS,38 nM,3 of 3
KSSQSVLYESRNHNSVA,WASTREQ,QQYHALPLS,140 nM,3 of 3
KSSQSVLYESCNTNSVA,WASTRES,QQYHRFPLS,39 nM,3 of 3
KSSQSVNYESRNWNSVA,WASTRES,QQYHRLYLS,not detected,0 of 3
KSSQSVLYMYRNMNSVA,WASTRES,QQYHRLPLS,280 nM,3 of 3
KSSQSKLYESRNSNSVA,WASTRES,QQIHRLPLS,360 µM,3 of 3
KSSQSVLYESRNQQSVA,WASTREL,QQYHRLPLS,10 nM,3 of 3
KSSQSVLYESRNANSVA,WASTRES,QQYHKLSLS,280 µM,2 of 3
KSSQSPLYLSRNTNSVA,WASTRES,QQYHRLPLS,19 nM,3 of 3
KSSQSLLYESRNENSVA,WASTVES,QQYHRLPLS,14 nM,3 of 3
KSSQSVLYESRNSNSVA,WASTREA,QQYHKLPLS,38 nM,3 of 3
KSSQSVLYESRHGNSVA,WASTRES,NQYHRLPLS,not detected,0 of 3
KSSQSVRYESRNNNSVA,WASTRFS,QQYHRLPLS,51 nM,3 of 3
RSSQSVLYESRNSNSVA,WASTRES,QQYHRLKLS,2.2 µM,1 of 3
KSSQSVLYESRNWNSVA,WATTRES,QQYHRLYLS,not detected,0 of 3
KSSQSVLYNSRNANSVA,QASTRES,QQYHRLPLS,550 pM,3 of 3
KSSQSVLYESRNMNSVA,CASTRES,QNYHRLPLS,29 nM,1 of 3
KSSQSVLYESRNINIVA,WAGTRES,QQYHRLPLS,75 µM,3 of 3
KSSQSVLYESREPNSVA,WASTRES,QQYHRLPWS,not detected,0 of 3
HSYQSVLYESRNDNSVA,WASTRES,QQYHRLPLS,38 nM,3 of 3
KSSQSFLYESRNENSVA,WASTRES,QQYHRLDLS,not detected,0 of 3
KSSQSVLYESRNVNSVA,WASTRES,QQYIQLPLS,98 nM,3 of 3
KSSQSVLYESRNTNWVA,WASTRES,QIYHRLPLS,12 µM,1 of 3

For reference, 8 entries of the list once more:

CDR-L1,CDR-L2,CDR-L3,apparent Kd,replicates with signal
KSSQSVLMESRNCNSVA,KASTRES,QQYHRLPLS,2.2 nM,3 of 3
KSSQSVLVESRNNNSVA,WASTRES,QQYHRAPLS,13 nM,3 of 3
KSSQSELYESRNANSVP,WASTRES,QQYHRLPLS,not detected,0 of 3
KSSQSVLYESHNNNSVW,WASTRES,QQYHRLPLS,54 µM,2 of 3
KSSQSVLYESRNQQSVA,WASTREL,QQYHRLPLS,10 nM,3 of 3
KSSQSVLYESREPNSVA,WASTRES,QQYHRLPWS,not detected,0 of 3
KSSQSVLYESRNSNSVA,WASTREA,QQYHKLPLS,38 nM,3 of 3
KSSQSVLYESRNDNSVA,WASTRES,GQYHRLPLS,1.7 µM,3 of 3

Nonspecific signal, from three strains lacking the peptide, appeared in 18% of pairings of library AAYL50, centred on 15 µM (5% of these signals below 970 nM); values are not corrected for it.
For reference, the parent read 4.4 nM as the reference entry and 48 nM as a member of this library.